PMC11800946

Columns and labels:
[1] = molecular target: human α-synuclein (human) (UniProt P37840)
[2] = molecular target: human α-synuclein (human) (UniProt P37840); remark: listed apart in the source

- ELISA of α-syn aggregates in lysates of human-PAC-wt-SNCA+/+/Snca−/− neurons after 14 days with PFFs, against human PFFs [1]: 2.5 times
- pS129–α-syn pathology in human iPSC-derived dopaminergic neurons, Alexa Fluor 568 PFFs 10 μg/ml, 7 days, against human PFFs [2]: > 2 fold
Substance: mouse α-synuclein (from UniProt O55042 1-140) (natural protein)
